# Measurements reported in PMC4628094, “In Vitro Assessment of Uptake and Lysosomal Sequestration of Respiratory Drugs in Alveolar Macrophage Cell Line NR8383” (Pharmaceutical Research, 2015).
# Key:
# NR8383 cells [1] = details: rat, 10 min, 5 μM
# in vitro = details: rat
# [2] = Drug uptake in NR8383 at 37 and 4°C (CLuptake, CLdiff, Kp); details: rat, NR8383 cells, Kp (cell-to-medium concentration ratio), NR8383, 5 μM, 37°C, 10 min
# NR8383 cells [3] = assay: as above
# [4] = Accumulation (Kp) in NR8383 over a concentration range, two-site binding model; details: rat, NR8383 cells
# NR8383 cells [5] = assay: as above; details: NR8383, 37°C, concentration range, two-site binding model, control
# [6] = tested on: Liver tissue slices from male Wistar rats; design: method as in ref (5) (a number printed in a supplementary file, which may have a reference list of its own: not looked up in the article's list); details: NH4Cl 20 mM, drug 5 µM, 60 min, ref (5); cited from earlier work
Structure (SMILES),fold decrease in Kp in the presence of NH4Cl relative to control (NR8383 cells [1]) [fold],"Kp at 10 min, 20 µM (in vitro; Kp + NH4Cl)","Kp at 10 min, 5 μM (in vitro; Kp Control)","Kp at 10 min, 20 µM (in vitro; Kp Control)","Kp at 10 min, 5 μM [2]","CLdiff (passive diffusion clearance) (NR8383 cells [3]; NR8383, 5 μM substrate, 4°C)","Kp (cell-to-medium concentration ratio) (NR8383 cells [3]; NR8383, 5 μM, 37°C, 10 min)","Kp at 10 min ([4]; Kp,max, sum of Kp,U1,max and Kp,min, control)","Kp at 10 min ([4]; Kp,min, NR8383, 37°C, concentration range, two-site binding model, control)","Kp at 10 min ([4]; with NH4Cl 20 mM, Kp,min, in the presence of NH4Cl (20 mM), 1–100 μM)","Kp at 10 min ([4]; with NH4Cl 20 mM, mean maximum fitted Kp, in the presence of NH4Cl (20 mM))","Kp,min (NR8383 cells [5])",Reduction in total uptake (%) [6] [%]
CC[C@H]1OC(=O)[C@H](C)[C@@H](O[C@H]2C[C@@](C)(OC)[C@@H](O)[C@H](C)O2)[C@H](C)[C@@H](O[C@@H]2O[C@H](C)C[C@H](N(C)C)[C@H]2O)[C@](C)(OC)C[C@@H](C)C(=O)[C@H](C)[C@@H](O)[C@]1(C)O [Clarithromycin],6,14.2 ± 4.44,82.7 ± 27.3,58.2 ± 11.6,82,Negligible,81.6 ± 22.8,69,24,4.7,14.4,24.2 ± 2.06,
CN[C@H]1CC[C@@H](c2ccc(Cl)c(Cl)c2)c2ccccc21 [Sertraline],,,,,,,,,,,,,20
